## Antibody variant affinities, Ab-95 light chain, assay 2

Values reported by Engelhart et al. 2022, doi:10.1038/s41597-022-01779-4 (FLAb copy).

Binding partner: SARS-CoV-2 spike HR2 peptide, sequence PDVDLGDISGINAS.

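AAYL52 was designed without a model: most single CDR substitutions and a random sample of double and triple ones. Affinity was read by AlphaSeq, a pooled yeast mating assay with surface-displayed partners. The frequency of each diploid, read from paired DNA barcodes, reflects how well the two displayed proteins bind. Each replicate has its own calibration line, from reference interactions of the BCL2 family. Mating was done three times.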

The variants keep the heavy chain, the linker and the frameworks of Ab-95 (scFv order VH, a (GGGGS)3 linker, VL).
VH: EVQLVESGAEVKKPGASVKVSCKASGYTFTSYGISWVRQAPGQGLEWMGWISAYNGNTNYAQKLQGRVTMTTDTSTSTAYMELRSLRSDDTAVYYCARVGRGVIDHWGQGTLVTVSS
VL: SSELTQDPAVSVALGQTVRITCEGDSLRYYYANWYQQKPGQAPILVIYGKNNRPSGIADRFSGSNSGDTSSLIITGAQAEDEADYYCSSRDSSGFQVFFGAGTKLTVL

The parent's light chain CDRs are EGDSLRYYYAN, GKNNRPS, SSRDSSGFQVF; each variant's own CDRs replace them letter for letter. Numbers give log10(Kd / nM), so 0 is 1 nM and 3 is 1 µM. Smaller is tighter. Where no diploid with the target was found in that replicate, the entry reads "n.d.": below detection, most likely a poor binder, though not proof of it. Empty control strains, which show no peptide, gave a signal in 28% of pairings with library AAYL52; the median was 3.91 and 95% of these signals were weaker than 2.90. No background was subtracted. The control count says in how many pairings with the empty strains this scFv gave a signal, with their mean in brackets. Parent in this assay: reference entry 2.31, copy in this library 2.25.

CDR-L1	CDR-L2	CDR-L3	replicates, log10 nM	signal with controls
EGDSLRNIYAN	GKNNQPS	SSRDSSGFQVF	3.23 / 3.76 / 4.37	4/9 (3.56)
EGDSLRYYTAN	GKNNRPQ	SSRDSSGFQSF	2.68 / 2.51 / 2.32	1/9 (4.19)
EGDSLRYYYAN	GKNNRPR	SARDSSGFQEF	3.49 / 3.13 / 2.39	2/9 (3.85)
EGDSLRYYYAN	GKNNSPS	SSRDSSGPQVF	4.27 / n.d. / 3.49	3/9 (3.85)
EGDSSYYYYAN	GKNNRPS	SSRDSSGFQVF	3.24 / 3.01 / 3.58	2/9 (2.94)
EGFSLRYYPAN	GKNNRPS	SSRDSSGFQVN	2.15 / 2.10 / 1.46	4/9 (4.10)
EGDHLRWYYAN	GKNNRPS	SSRDSSMFQVF	2.98 / 3.27 / 2.96	1/9 (4.00)
EGASLRKYYGN	GKNNRPS	SSRDSSGFQVF	2.85 / 3.17 / 2.65	4/9 (4.37)
IGDSLRWYYMN	GKNNRPS	SSRDSSGFQVF	n.d. / n.d. / n.d.	0/9
EGDSLRYYYAN	GKNVRPS	SSFDSSGFQWF	2.85 / 2.44 / n.d.	1/9 (3.78)
EGDSSRYYYAN	GKNNRSS	ESRDSSGFQVF	n.d. / 5.07 / n.d.	3/9 (3.46)
EGDSLRYYYAN	GKNNRPS	SSRLYSGFQFF	n.d. / n.d. / n.d.	0/9
EGDSLRYYYAN	MKNQRPI	SSRDSSGFQVF	n.d. / 3.15 / n.d.	0/9
EGDSLRHWYAN	GKNNRPN	SSRDSSGFQVF	2.29 / 2.57 / 2.18	3/9 (3.30)
WGDSLRYYYLN	GKNNRPS	SSRDSSGFQVP	4.53 / n.d. / n.d.	0/9
EGDSLRYYYHN	GNNNRPS	SSRDSSGFQIF	2.85 / 3.06 / 4.58	2/9 (4.44)
EGDSLYYYYAN	GCNNRPS	SSRDSCGFQVF	n.d. / 4.58 / n.d.	2/9 (4.12)
EGDSLRYYYAN	GKNNRPS	VSRDSSGFGAF	1.77 / 1.66 / 1.44	2/9 (4.17)
EGDSLYYYYAN	GKNHRPS	SSRHSSGFQVF	3.58 / 3.85 / 3.95	4/9 (4.32)
EGDSLRYYEAN	GKGNRPS	SSRDSSGFQPF	1.75 / 1.61 / 1.45	2/9 (4.43)
EGDSLRYYYAN	GKNNRPS	SGRDSSRFQVF	3.45 / 2.52 / 2.79	2/9 (3.57)
EGDSLRYYYAN	GMNNRPK	SSRDSSGFQNF	4.23 / 2.51 / 3.25	0/9
EGDSLRYVYAN	GKNNTES	SSRDSSGFQVF	n.d. / n.d. / n.d.	0/9
EGCSLLYYYAN	GKNNRPS	SSRDSSGFQLF	n.d. / 4.61 / 3.60	1/9 (3.75)
EGDSCRYYYAN	GKNNRPS	SSRDSPWFQVF	3.91 / 5.12 / n.d.	1/9 (5.11)
EGDSSRYYYAN	GKNNRPS	SSRDSSGAQVF	3.54 / 3.30 / n.d.	2/9 (4.02)
EGWSLHYYYAN	GKNNGPS	SSRDSSGFQVF	4.44 / n.d. / n.d.	6/9 (4.31)
EGDGLRYYYAN	GKNNRPS	SSRDSSGFVVF	2.97 / 3.46 / 3.74	4/9 (3.76)
NCDLLRYYYAN	GKNNRPS	SSRDSSGFQVF	n.d. / n.d. / n.d.	4/9 (3.66)
EGDSLRYYYAN	GKNNRPS	SSRDSSMFAVR	3.46 / 3.75 / n.d.	4/9 (3.48)
EGDSLRYYYAN	GKNNRPD	SSGCSSGFQVF	3.38 / 2.99 / 2.13	2/9 (4.01)

3 of these entries, quoted again:

CDR-L1	CDR-L2	CDR-L3	replicates, log10 nM	signal with controls
NCDLLRYYYAN	GKNNRPS	SSRDSSGFQVF	n.d. / n.d. / n.d.	4/9 (3.66)
EGDSCRYYYAN	GKNNRPS	SSRDSPWFQVF	3.91 / 5.12 / n.d.	1/9 (5.11)
EGASLRKYYGN	GKNNRPS	SSRDSSGFQVF	2.85 / 3.17 / 2.65	4/9 (4.37)